The source of these data is ChEMBL document CHEMBL1641425, “Discovery of 1-(3,4-dichlorophenyl)-N,N-dimethyl-1,2,3,4-tetrahydroquinolin-4-amine, a dual serotonin and dopamine reuptake inhibitor” (Bioorg Med Chem Lett, 2011).

Amino acid sequences for entries named in this document (tags omitted).
UniProt P23975, whole entry: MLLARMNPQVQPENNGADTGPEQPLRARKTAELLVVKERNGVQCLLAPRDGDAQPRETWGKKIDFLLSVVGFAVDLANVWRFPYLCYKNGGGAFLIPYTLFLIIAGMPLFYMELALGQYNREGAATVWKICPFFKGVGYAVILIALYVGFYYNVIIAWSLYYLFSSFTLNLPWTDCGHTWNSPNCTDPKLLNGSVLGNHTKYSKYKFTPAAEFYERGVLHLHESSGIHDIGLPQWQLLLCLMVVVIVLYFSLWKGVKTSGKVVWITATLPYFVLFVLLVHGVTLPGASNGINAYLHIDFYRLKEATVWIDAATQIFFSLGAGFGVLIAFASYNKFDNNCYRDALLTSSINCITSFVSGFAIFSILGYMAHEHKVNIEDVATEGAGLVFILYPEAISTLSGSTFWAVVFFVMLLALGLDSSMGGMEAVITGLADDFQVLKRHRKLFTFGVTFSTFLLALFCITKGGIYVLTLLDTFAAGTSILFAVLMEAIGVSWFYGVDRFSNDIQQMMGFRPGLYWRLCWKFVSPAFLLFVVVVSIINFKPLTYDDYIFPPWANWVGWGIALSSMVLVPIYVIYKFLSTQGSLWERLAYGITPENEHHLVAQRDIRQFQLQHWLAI
UniProt P31645, whole entry: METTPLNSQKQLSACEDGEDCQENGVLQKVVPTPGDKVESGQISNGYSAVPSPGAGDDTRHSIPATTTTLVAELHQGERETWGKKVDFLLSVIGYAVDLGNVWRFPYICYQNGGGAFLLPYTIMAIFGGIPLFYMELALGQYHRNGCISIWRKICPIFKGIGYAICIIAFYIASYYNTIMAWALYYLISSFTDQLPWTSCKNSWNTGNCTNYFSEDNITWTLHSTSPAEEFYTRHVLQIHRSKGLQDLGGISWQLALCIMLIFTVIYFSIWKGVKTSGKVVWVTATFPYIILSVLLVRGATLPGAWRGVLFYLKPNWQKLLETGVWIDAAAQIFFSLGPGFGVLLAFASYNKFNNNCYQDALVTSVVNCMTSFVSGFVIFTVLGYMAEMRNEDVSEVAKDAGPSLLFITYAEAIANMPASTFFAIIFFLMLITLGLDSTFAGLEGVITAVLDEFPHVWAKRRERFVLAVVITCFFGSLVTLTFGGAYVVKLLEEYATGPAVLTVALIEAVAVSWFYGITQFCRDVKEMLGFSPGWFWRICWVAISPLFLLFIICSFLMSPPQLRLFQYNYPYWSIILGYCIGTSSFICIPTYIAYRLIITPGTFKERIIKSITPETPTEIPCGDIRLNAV

In assay [1] the target is Sodium-dependent noradrenaline transporter (Homo sapiens, UniProt P23975). The assay can be described thus: Inhibition of human recombinant norepinephrine transporter.
Assay [2] deals with Sodium-dependent serotonin transporter (Homo sapiens, UniProt P31645). Kind of assay: Inhibition of human recombinant 5HT transporter.

Structures are written as SMILES.

One may read the IC50 as the point on the concentration scale where inhibition reaches its midpoint. On to `CN[C@H]1Cc2ccccc2[C@@H](c2ccc(Cl)c(Cl)c2)C1`, for which the values for the IC50 in assay [1] and in assay [2] were 73 nM and 107 nM, respectively.
